In patent US11103549B2, “Use of histone methyltransferase inhibitors and histone deacetylase inhibitors for therapy of Phelan-McDermid Syndrome” (Asddr, LLC, priority 2016, dated 2021):
Entries after “also recorded” stand apart in the source; their conditions may differ.

Experiments:
[1] = Klimek et al., 2008; cited from earlier work
Shank3+/ΔC mice = details: i.p., once daily for 3 days
[2] = UNC0642 1 mg/kg or romidepsin 0.25 mg/kg

In the case of Romidepsin, the brain permeability [1] is listed as “brain-permeable”, the “behavioral abnormalities or neuronal loss” value (Shank3+/ΔC mice; [2]) is listed as “does not induce behavioral impairment or neuronal loss; also recorded: No behavioral abnormalities or neuronal loss” and the “blood chemistry and hematology: indicators for liver and kidney functions, lipid and protein metabolism” value (Shank3+/ΔC mice; [2]) is listed as “within normal ranges”. For the same substance, the “white blood cells and lymphocytes” value (Shank3+/ΔC mice; romidepsin 0.25 mg/kg) was “lower white blood cells and lymphocytes”.
